Source: patent US20250025443A1, “COMPOUNDS AND METHODS FOR TREATING CORONA VIRUSES” (CLEAR CREEK BIO, INC., priority 2021, published 2025)

Molecular target: SARS-CoV-2 Papain-Like Protease (PLpro) (Severe acute respiratory syndrome coronavirus 2 (2019-nCoV) (SARS-CoV-2), UniProt P0DTD1)
Assay: biochemical
Settings: PLpro IC50, SARS-CoV-2 PLpro enzymatic fluorescence assay

| Structure (SMILES) | IC50 |
| --- | --- |
| Cc1ccc(OC2CNC2)cc1C(=O)N[C@H](C)c1cccc2ccccc12 [Compound 141, (R)-5-(Azetidin-3-yloxy)-2-methyl-N-(1-(naphthalen-1-yl)ethyl)benzamide] | 100 to 1000 nM |
| Cc1ccc(OCCN)cc1C(=O)N[C@H](C)c1cccc2ccccc12 [Compound 159, (R)-5-(2-Aminoethoxy)-2-methyl-N-(1-(naphthalen-1-yl)ethyl)benzamide] | 100 to 1000 nM |
